The values that follow come from patent publication US7385103B2, “Animal model, cells, and treatment for malignant melanoma” (Rutgers, the State University, priority 2004, dated 2008).

This test concerns Grm1-mediated ERK1/2 activation. The test can be described thus: ERK1/2 phosphorylation in melanoma cells, western blot with phospho-ERK1/2 antibodies. The conditions noted are these: preincubated 15 minutes with 10 μM PKC inhibitor before quisqualate. Type of test: cell-based, mouse. The method, then:
To examine whether ERK1/2 were activated after Grm1 activation, cells were treated for the indicated times with the agonist Quisqualate. After treatment, melanoma cells were lysed and the activation of ERK1/2 was determined using antibodies against the phosphorylated forms of ERK1/2.
Melanoma cells lines were transiently transfected with dominant-negative mutants of Grm1 and expression of the Grm1 mutants was analyzed by western blot analysis.
Upon IP3 accumulation in cells, calcium is released from the endoplasmic reticulum to the cytoplasm, allowing these ions to act as second messengers that bind to calmodulin and further activate calcium-calmodulin-dependent kinases that are capable of activating mitogen-activated protein kinases (MAPKS) (Soderling (1999) Trends Biochem. Sci. 24(6):232-6). Accordingly, it was determined whether IP3 accumulation in the tumor cell lines disclosed herein, upon Grm1 agonist treatment, would yield intracellular calcium signaling that could affect ERK activation. […]
PIP2 hydrolysis resulting from Grm1 activation leads to the production of IP3 and DAG. […] Thus, it was determined whether the activation of ERK1/2 by Grm1 is also mediated by PKC in the tumor cell lines disclosed herein. […]

For `CN[C@@H]1C[C@H]2O[C@@](C)([C@@H]1OC)n1c3ccccc3c3c4c(c5c6ccccc6n2c5c31)C(=O)NC4` [staurosporine], the “ERK phosphorylation after quisqualate treatment” value was “abrogation of ERK phosphorylation”.
